Among the data in ChEMBL document CHEMBL1136508, “[3H]-methoxymethyl-MTEP and [3H]-methoxy-PEPy: potent and selective radioligands for the metabotropic glutamate subtype 5 (mGlu5) receptor” (Bioorg Med Chem Lett, 2003) are IC50 values, retold here.

By UniProt entry, the sequences of proteins in these tests, tags left out.
UniProt P31424, whole entry: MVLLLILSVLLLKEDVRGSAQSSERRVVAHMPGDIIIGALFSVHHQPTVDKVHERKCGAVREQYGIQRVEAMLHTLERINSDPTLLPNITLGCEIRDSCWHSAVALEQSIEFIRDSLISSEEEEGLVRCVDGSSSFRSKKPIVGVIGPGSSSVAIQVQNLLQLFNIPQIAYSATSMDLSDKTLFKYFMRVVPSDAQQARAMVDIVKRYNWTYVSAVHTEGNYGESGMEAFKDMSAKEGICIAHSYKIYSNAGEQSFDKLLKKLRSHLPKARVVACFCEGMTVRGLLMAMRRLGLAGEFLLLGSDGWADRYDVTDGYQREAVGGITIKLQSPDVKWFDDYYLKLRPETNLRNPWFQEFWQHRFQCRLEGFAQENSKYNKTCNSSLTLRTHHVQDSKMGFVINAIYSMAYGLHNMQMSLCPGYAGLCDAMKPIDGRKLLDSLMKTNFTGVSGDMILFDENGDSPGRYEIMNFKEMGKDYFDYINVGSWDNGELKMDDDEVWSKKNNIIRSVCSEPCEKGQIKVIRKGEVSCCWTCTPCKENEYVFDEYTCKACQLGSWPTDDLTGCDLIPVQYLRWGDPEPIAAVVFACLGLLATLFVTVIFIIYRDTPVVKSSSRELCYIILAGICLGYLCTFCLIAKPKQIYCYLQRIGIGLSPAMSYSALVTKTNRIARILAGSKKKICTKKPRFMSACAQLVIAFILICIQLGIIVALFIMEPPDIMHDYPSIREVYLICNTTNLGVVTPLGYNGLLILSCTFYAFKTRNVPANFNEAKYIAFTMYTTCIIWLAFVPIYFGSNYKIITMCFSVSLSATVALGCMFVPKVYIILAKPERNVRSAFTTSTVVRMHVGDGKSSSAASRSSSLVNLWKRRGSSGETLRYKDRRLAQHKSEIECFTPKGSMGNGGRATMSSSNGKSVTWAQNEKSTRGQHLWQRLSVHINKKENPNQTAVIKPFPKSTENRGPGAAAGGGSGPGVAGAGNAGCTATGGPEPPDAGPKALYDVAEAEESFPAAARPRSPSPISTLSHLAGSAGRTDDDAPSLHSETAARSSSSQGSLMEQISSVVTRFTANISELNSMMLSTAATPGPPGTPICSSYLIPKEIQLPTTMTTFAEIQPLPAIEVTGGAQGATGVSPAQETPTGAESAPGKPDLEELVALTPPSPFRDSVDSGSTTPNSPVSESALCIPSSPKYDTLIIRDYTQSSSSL

Usually IC50 stands for the concentration needed to halve the response being measured. High values mean weaker potency in that assay, low ones greater potency in that assay.

The target of this assay is Metabotropic glutamate receptor 5 (Rattus norvegicus, UniProt P31424). Nature of the assay: Binding affinity towards mGlu5 receptors in rat brain membranes was evaluated. It is filed as cell membranes. The essentials:
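Displacement of [3H]-methoxy-PEPy (specific activity 67.6 Ci/mmol) binding to rat brain membranes, incubated at room temperature (equilibrium within 60 min). Nonspecific binding was defined with an unlabelled mGlu5 antagonist as cold displacer. Concentration–response curves gave IC50 values.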

Regarding `Cc1cccc(C#Cc2ccccc2)n1`, the IC50 is 20 nM.
